Assay results from patent publication US9029542B2 (priority 2011, dated 2015).

What was measured:
cockspur grass = experiment: Weed clearing activity test with culture dish method (ex-vivo plate method); type: in vivo; settings: positive = inhibition; for weed clearing activity, cockspur grass Root (Effect): root length after 5 days; for weed clearing activity, cockspur grass Stem (Effect): stem length after 5 days
rape [1] = experiment: as above; type: in vivo; settings: positive = inhibition; for weed clearing activity, rape Root (Effect): root length after 5 days; for weed clearing activity, rape Stem (Effect): stem length after 5 days
Abutilon theophrasti = experiment: Postemergence weed clearing activity, pot-culture method; type: in vivo; settings: visual 0-100% grading 25 days after application
Amaranthus retroflexus = experiment: as above; type: in vivo; settings: visual 0-100% grading 25 days after application
Capsella bursa-pastoris = experiment: as above; type: in vivo; settings: visual 0-100% grading 25 days after application
Eclipta prostrata = experiment: as above; type: in vivo; settings: visual 0-100% grading 25 days after application
Cardmine = experiment: as above; settings: visual 0-100% grading 25 days after application; for Postemergence weed clearing activity, Card-mine: 10 g/mu, foliage spray; for Weed clearing activity, Cardmine, Postemergence: pot-culture
Cassia obtusifolia = experiment: as above; settings: visual 0-100% grading 25 days after application; for Postemergence weed clearing activity, Cassia obtusifolia: 10 g/mu, foliage spray; for Weed clearing activity, Cassia obtusifolia, Postemergence: pot-culture
Chenopodium serotinum = experiment: as above; settings: 10 g/mu; foliage spray; visual 0-100% grading 25 days after application
rape [2] = experiment: as above; settings: 10 g/mu; foliage spray; visual 0-100% grading 25 days after application

SMILES: Cc1ccc(OCC(=O)OCC23COP(=O)(OC2)OC3)cc1
- weed clearing activity, cockspur grass Root (Effect) (cockspur grass; 10 μg/g): 51%
- weed clearing activity, cockspur grass Stem (Effect) (cockspur grass; 10 μg/g): 4%
- weed clearing activity, cockspur grass Root (Effect) (cockspur grass; 100 μg/g): 94%
- weed clearing activity, cockspur grass Stem (Effect) (cockspur grass; 100 μg/g): 22%
- weed clearing activity, rape Root (Effect) (rape [1]; 10 μg/g): 79%
- weed clearing activity, rape Stem (Effect) (rape [1]; 10 μg/g, negative = promotion): 34%
- weed clearing activity, rape Root (Effect) (rape [1]; 100 μg/g): 97%
- weed clearing activity, rape Stem (Effect) (rape [1]; 100 μg/g): 88%
- Weed clearing activity, Abutilon theophrasti, Postemergence (Abutilon theophrasti; dosage 5 g/mu): 30%
- Weed clearing activity, Abutilon theophrasti, Postemergence (Abutilon theophrasti; dosage […]): 30%
- weed clearing activity, Amaranthus retroflexus Postemergence (Amaranthus retroflexus; 10 g/mu, foliage spray): 80%
- weed clearing activity, Amaranthus retroflexus Postemergence (Amaranthus retroflexus; dosage 5 g/mu, pot-culture): 70%
- weed clearing activity, Amaranthus retroflexus Postemergence (Amaranthus retroflexus; dosage […], pot-culture): 60%
- weed clearing activity, Capsella bursa-pastoris Postemergence (Capsella bursa-pastoris; 10 g/mu, foliage spray): 100%
- weed clearing activity, Capsella bursa-pastoris Postemergence (Capsella bursa-pastoris; dosage 5 g/mu, pot-culture): 85%
- weed clearing activity, Capsella bursa-pastoris Postemergence (Capsella bursa-pastoris; dosage […], pot-culture): 70%
- Weed clearing activity, Eclipta prostrata, Postemergence (Eclipta prostrata; dosage 5 g/mu): 65%
- Weed clearing activity, Eclipta prostrata, Postemergence (Eclipta prostrata; dosage […]): 60%
- Postemergence weed clearing activity, Card-mine (Cardmine): 70%
- Weed clearing activity, Cardmine, Postemergence (Cardmine; dosage 5 g/mu): 70%
- Weed clearing activity, Cardmine, Postemergence (Cardmine; dosage […]): 50%
- Postemergence weed clearing activity, Cassia obtusifolia (Cassia obtusifolia): 70%
- Weed clearing activity, Cassia obtusifolia, Postemergence (Cassia obtusifolia; dosage 5 g/mu): 70%
- Weed clearing activity, Cassia obtusifolia, Postemergence (Cassia obtusifolia; dosage […]): 60%
- Postemergence weed clearing activity, Chenopodium serotinum (Chenopodium serotinum): 80%

SMILES: O=C(COc1ccccc1F)OCC12COP(=O)(OC1)OC2
- weed clearing activity, cockspur grass Root (Effect) (cockspur grass; 10 μg/g): 69%
- weed clearing activity, cockspur grass Stem (Effect) (cockspur grass; 10 μg/g): 31%
- weed clearing activity, cockspur grass Root (Effect) (cockspur grass; 100 μg/g): 80%
- weed clearing activity, cockspur grass Stem (Effect) (cockspur grass; 100 μg/g): 55%
- weed clearing activity, rape Root (Effect) (rape [1]; 10 μg/g): 53%
- weed clearing activity, rape Stem (Effect) (rape [1]; 10 μg/g, negative = promotion): 24%
- weed clearing activity, rape Root (Effect) (rape [1]; 100 μg/g): 92%
- weed clearing activity, rape Stem (Effect) (rape [1]; 100 μg/g): 49%
- Weed clearing activity, Abutilon theophrasti, Postemergence (Abutilon theophrasti; dosage 5 g/mu): 30%
- Weed clearing activity, Abutilon theophrasti, Postemergence (Abutilon theophrasti; dosage […]): 30%
- weed clearing activity, Amaranthus retroflexus Postemergence (Amaranthus retroflexus; 10 g/mu, foliage spray): 100%
- weed clearing activity, Amaranthus retroflexus Postemergence (Amaranthus retroflexus; dosage 5 g/mu, pot-culture): 70%
- weed clearing activity, Amaranthus retroflexus Postemergence (Amaranthus retroflexus; dosage […], pot-culture): 70%
- weed clearing activity, Capsella bursa-pastoris Postemergence (Capsella bursa-pastoris; 10 g/mu, foliage spray): 100%
- weed clearing activity, Capsella bursa-pastoris Postemergence (Capsella bursa-pastoris; dosage 5 g/mu, pot-culture): 90 (Severely effecting growth, leading to death in majority, a few plants remaining, having very good activity)
- weed clearing activity, Capsella bursa-pastoris Postemergence (Capsella bursa-pastoris; dosage […], pot-culture): 90 (Severely effecting growth, leading to death in majority, a few plants remaining, having very good activity)
- Weed clearing activity, Eclipta prostrata, Postemergence (Eclipta prostrata; dosage 5 g/mu): 50%
- Weed clearing activity, Eclipta prostrata, Postemergence (Eclipta prostrata; dosage […]): 0 (Being same as the control, inactive)
- Postemergence weed clearing activity, Card-mine (Cardmine): 80%
- Weed clearing activity, Cardmine, Postemergence (Cardmine; dosage 5 g/mu): 80 (Severely effecting growth, leading to death in a part, having good activity)
- Weed clearing activity, Cardmine, Postemergence (Cardmine; dosage […]): 70%
- Postemergence weed clearing activity, Cassia obtusifolia (Cassia obtusifolia): 40%
- Weed clearing activity, Cassia obtusifolia, Postemergence (Cassia obtusifolia; dosage 5 g/mu): 0 (Being same as the control, inactive)
- Weed clearing activity, Cassia obtusifolia, Postemergence (Cassia obtusifolia; dosage […]): 0 (Being same as the control, inactive)
- Postemergence weed clearing activity, Chenopodium serotinum (Chenopodium serotinum): 100%

SMILES: CC(C)(C)c1ccc(OCC(=O)OCC23COP(=O)(OC2)OC3)cc1
- weed clearing activity, cockspur grass Root (Effect) (cockspur grass; 10 μg/g): 67%
- weed clearing activity, cockspur grass Stem (Effect) (cockspur grass; 10 μg/g): 25%
- weed clearing activity, cockspur grass Root (Effect) (cockspur grass; 100 μg/g): 72%
- weed clearing activity, cockspur grass Stem (Effect) (cockspur grass; 100 μg/g): 43%
- weed clearing activity, rape Root (Effect) (rape [1]; 10 μg/g): 9%
- weed clearing activity, rape Stem (Effect) (rape [1]; 10 μg/g, negative = promotion): 5%
- weed clearing activity, rape Root (Effect) (rape [1]; 100 μg/g): 79%
- weed clearing activity, rape Stem (Effect) (rape [1]; 100 μg/g): 49%
- weed clearing activity, Amaranthus retroflexus Postemergence (Amaranthus retroflexus; 10 g/mu, foliage spray): 85%
- Postemergence weed clearing activity, Rape (rape [2]): 79%
